# Experimental data as given in ChEMBL document CHEMBL6114960, “Discovery of First-in-Class FXR and HSD17B13 Dual Modulator for the Treatment of Metabolic Dysfunction-Associated Fatty Liver Disease” (J Med Chem, 2025).
# Activity calls are given as the source filed them. The calls are words filed in the database; no cut-off is given here.
# Key:
# Type in all cases: functional, organism-based
# Mus musculus [1] = assay: Anti-MASH activity in western diet and CCl4 co-induced male C57BL/6 mouse model assessed as reduction in liver steatosis at 20 mg/kg, po administered with high fat diet and sugar water for 12 weeks with subsequent CCl4 administration three times a week and measured after 4 weeks of compound administration via gavage starting from 9th week by H and E staining based analysis
# Mus musculus [2] = assay: Anti-MASH activity in western diet and CCl4 co-induced male C57BL/6 mouse model assessed as reduction in lobular inflammation in liver at 20 mg/kg, po administered with high fat diet and sugar water for 12 weeks with subsequent CCl4 administration three times a week and measured after 4 weeks of compound administration via gavage starting from 9th week by H and E staining based analysis
# Mus musculus [3] = assay: Anti-MASH activity in western diet and CCl4 co-induced male C57BL/6 mouse model assessed as reduction in ballooning in liver at 20 mg/kg, po administered with high fat diet and sugar water for 12 weeks with subsequent CCl4 administration three times a week and measured after 4 weeks of compound administration via gavage starting from 9th week by H and E staining based analysis
# Mus musculus [4] = assay: Anti-MASH activity in western diet and CCl4 co-induced male C57BL/6 mouse model assessed as reduction in collagen deposition in liver at 20 mg/kg, po administered with high fat diet and sugar water for 12 weeks with subsequent CCl4 administration three times a week and measured after 4 weeks of compound administration via gavage starting from 9th week by Masson staining based analysis
# Mus musculus [5] = assay: Anti-MASH activity in western diet and CCl4 co-induced male C57BL/6 mouse model assessed as reduction in hepatic stellate cell activation in liver at 20 mg/kg, po administered with high fat diet and sugar water for 12 weeks with subsequent CCl4 administration three times a week and measured after …; conditions: time 4.0 weeks
# Mus musculus [6] = assay: Anti-MASH activity in methionine-choline-deficient high fat diet induced male C57BL/6 mouse model assessed as reduction in vacuolation density in liver at 20 mg/kg, po administered with MCD-HFD for 8 weeks followed by compound administration via gavage for 4 weeks starting from 5th week by H and E staining based analysis
# Mus musculus [7] = assay: Anti-MASH activity in methionine-choline-deficient high fat diet induced male C57BL/6 mouse model assessed as improvement in liver steatosis at 20 mg/kg, po administered with MCD-HFD for 8 weeks followed by compound administration for 4 weeks via gavage starting from 5th week by H and E staining based analysis
compound,measurement,setting,value
CC[C@H]1[C@@H](O)[C@@H]2[C@H](CC[C@]3(C)[C@@H]([C@H](C)CCC(=O)O)CC[C@@H]23)[C@@]2(C)CC[C@@H](O)C[C@@H]12 [OBETICHOLIC ACID],Activity,Mus musculus [1],Active
same,Activity,Mus musculus [2],Active
same,Activity,Mus musculus [3],Active
same,Activity,Mus musculus [4],Active
same,Activity,Mus musculus [5],Active
same,Activity,Mus musculus [6],Active
same,Activity,Mus musculus [7],Active; Modest Improvement In Steatosis Observed
